scFv variants of Ab-14 (light chain) against a SARS-CoV-2 spike peptide

Data: MIT Lincoln Laboratory AlphaSeq set, Li et al. 2023, doi:10.1038/s41467-023-39022-2, as distributed in FLAb.

Target peptide (SARS-CoV-2 spike, HR2 region): PDVDLGDISGINAS

Parent: Ab-14, a human scFv built as VH, the linker GGGGSGGGGSGGGGS, VL. Only the CDRs of the light chain vary.
VH: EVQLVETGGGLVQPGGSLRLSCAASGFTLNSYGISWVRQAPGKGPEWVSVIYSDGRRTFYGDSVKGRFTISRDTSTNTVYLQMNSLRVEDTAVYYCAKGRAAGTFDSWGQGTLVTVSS
VL: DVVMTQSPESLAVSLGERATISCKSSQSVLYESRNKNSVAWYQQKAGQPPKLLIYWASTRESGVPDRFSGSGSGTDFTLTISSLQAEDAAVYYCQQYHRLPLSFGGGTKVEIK

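Phage display of a naive human antibody library on the peptide gave the parent. The variants were designed computationally from a first round of random CDR variants and then made and measured. Group labels follow the data file (Ctrl: baseline library sampled from a position-specific scoring matrix, with some repeated check sequences; Rand: our label for a block that the file lists under HC and that is probably the random mutants of the ten best first-round binders; En: ensemble of fine-tuned language models; GP: Gaussian process model; HC: hill climbing; Gen: genetic algorithm; Gibbs: Gibbs sampling; a sequence that several methods proposed may carry one label only). Affinity was read by AlphaSeq, a pooled yeast mating assay with surface-displayed partners. After mating in shaken culture at 30 °C for 16 h, diploids were selected and their barcode pairs sequenced. Each replicate has its own calibration line, from reference interactions of the BCL2 family. Mating was done six times.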

Variants are written as CDR1, CDR2 and CDR3 of the light chain (limits as in the source). Parent: KSSQSVLYESRNKNSVA, WASTRES, QQYHRLPLS. Numbers give log10(Kd / nM), so 0 is 1 nM and 3 is 1 µM. Smaller is tighter. Replicates are averaged; those with no signal do not enter the mean. "no signal" marks a missing value. The strain was present, yet no cells mated with the target were sequenced in any replicate, which points to weak or no binding. The authors averaged sequences with at least three values out of six and counted those with two or fewer as poor binders.

For AHDHTMDSGKQAPNSIA / NAEQKTI / QQYQRLPLS [En_Gibbs], the assay gave 0.68 (6 of 6 replicates).
For KVSFSYLLESRNKNSVA / EASTRED / QQYHRLPLS [GP_HC], the assay gave 0.08 (6 of 6 replicates).
For MMTEGLLGENKNSSNIA / SQNIKTA / QQYQRLPLT [En_Gibbs], the assay gave -0.31 (5 of 6 replicates).
For KLQFSCLYESRDKNSVA / DASYRLS / QQYHRLPLS [GP_Gibbs], the assay gave 1.15 (6 of 6 replicates).
For KSEQSVLYESRNKNSVA / AASTRES / QQYHRLPLS [Ctrl], the assay gave 0.13 (6 of 6 replicates).
For KSSQSVGGEQRNKNSVA / DISTRES / QQYHRLPLS [GP_HC], the assay gave -0.22 (6 of 6 replicates).
For KSSQSVLYESRNKNSVA / WASTREM / QQYHCLPLS [Ctrl], the assay gave no signal (0 of 6 replicates).
For KFSQSVLYPSRTQNSVA / NASTRES / QQVHRYPLS [Rand], the assay gave no signal (0 of 6 replicates).
For KLSQVTHSESINKNSIA / EMVTREV / QQYDRLPLS [En_HC], the assay gave 0.92 (6 of 6 replicates).
For KLPQSVLYESRNKNAVA / EASTRES / QQYHRLPLS [GP_Gen], the assay gave -0.37 (6 of 6 replicates).
For KVSISYLLESRNKNSVA / DASTRES / QQYHRLPLS [GP_HC], the assay gave -0.34 (6 of 6 replicates).
For HLSAMSVTETVKSRNVA / ENSTREQ / QQYDRLPLA [En_Gen], the assay gave 2.53 (5 of 6 replicates).
For KLMTQVGHQMDHKNSIA / HVDMVAQ / QQYMHLPLI [En_Gibbs], the assay gave 2.05 (6 of 6 replicates).
For KSSISYLYESRNSNSVA / EASTREQ / QQYHRLPLS [GP_HC], the assay gave 1.01 (6 of 6 replicates).
For KSSQSVLYESRNKNSVA / WASTRAS / QQYHRLPLS [Ctrl], the assay gave 2.05 (6 of 6 replicates).
For KWLQSVLYESRNKNSVA / HASTRED / QQYGRLPLS [GP_HC], the assay gave no signal (0 of 6 replicates).
For QMYPFEVAKGEGRNNVA / HVSVRAL / QQYFRLPLV [En_Gibbs], the assay gave 1.19 (1 of 6 replicates).
For KLSQSGLYGMRNKNSVA / QASQRLQ / QQYHRLPLS [GP_Gibbs], the assay gave 0.42 (6 of 6 replicates).
For KSSQSYHYESRNKNSVA / DASTRES / QQYHRLPLS [GP_HC], the assay gave 0.23 (6 of 6 replicates).
For MLENKPTSFLNNKDAIA / DDEASTS / QQYDRLPLS [En_Gibbs], the assay gave no signal (0 of 6 replicates).
For KISYMGEYFSTNHSAIA / QASTREQ / QQYHRLPIS [En_HC], the assay gave 1.17 (6 of 6 replicates).
For KVSEFMKGLMMRTDSIA / DNETRNS / QQYDRLPLS [En_Gen], the assay gave 1.82 (6 of 6 replicates).
For KSSQSVEYESRNKNSVA / WATERES / QQYHRLPLS [Ctrl], the assay gave 0.85 (6 of 6 replicates).
For KSSQSVLYESRNKNSVA / QASTREV / QQLHRLPLS [Ctrl], the assay gave 0.90 (3 of 6 replicates).
For KSEDGVDDEERNDNSVA / NASTRES / QQYHRLPLS [GP_Gibbs], the assay gave 1.87 (6 of 6 replicates).
For KAPQSVLYTSRNKASVA / WASTVED / QQYHRLPLS [Ctrl], the assay gave 1.74 (1 of 6 replicates).
For MVTQMAMSGMTNKRSVA / NAEQRED / QQYHRLPLI [En_Gen], the assay gave 0.46 (6 of 6 replicates).
For KITGMWTFESHNRQNIA / EESTRED / QSYHRLPLS [En_HC], the assay gave 0.23 (6 of 6 replicates).
For GFSDSITETIADANSIA / DRDARDV / QQYSRLPLI [En_Gibbs], the assay gave 1.03 (6 of 6 replicates).
For KSSQSVLMDSRNKNSVA / WASTRES / QQYHRLPLS [Ctrl], the assay gave 1.35 (6 of 6 replicates).
For KSSQSVLYESENKNSVA / QASTRES / QQYHRLPFS [Ctrl], the assay gave 1.50 (6 of 6 replicates).
For KLYQSHLYESRNKNSVA / NASTRCS / QQYHRLPLS [GP_Gen], the assay gave 0.17 (6 of 6 replicates).
For KVSQSELYESRNKNSVA / HASTRES / QQYHRLPLS [GP_Gen], the assay gave -0.07 (6 of 6 replicates).
For KLSMITGHMSMSKNNVA / EMVTREK / QQYNRLPLS [En_Gen], the assay gave -0.12 (6 of 6 replicates).
For KLSQSVLYGQRNKNSVA / KASTRMS / QQYHRLPLY [GP_Gibbs], the assay gave 1.18 (6 of 6 replicates).
For KSSQSVHYESRNKNSVA / WASTRES / QQYFRLPLS [Ctrl], the assay gave 2.01 (6 of 6 replicates).
For KSSQAVGYESRNKNSVA / MASTREP / QQYHRLPLS [Ctrl], the assay gave 1.24 (6 of 6 replicates).
For KLSMQEMMESRNKNSVA / SANTREE / QQYHRLPLS [GP_Gibbs], the assay gave 0.06 (6 of 6 replicates).
For KSSQSVLYESRNKNSVA / KASRRES / QQYHRLPLS [Ctrl], the assay gave 2.35 (4 of 6 replicates).
For KSSQSVLYESRNKNSGA / WASTREI / QQYHRLLLS [Ctrl], the assay gave no signal (0 of 6 replicates).
For MISQISSMGQFAKNSVA / QASQRNA / QQYDRLPLI [En_Gen], the assay gave 0.65 (6 of 6 replicates).

The 6 strongest on average among those seen in every replicate, once more:

CDR-L1	CDR-L2	CDR-L3	group	mean log10 Kd (nM)	detected
KLPQSVLYESRNKNAVA	EASTRES	QQYHRLPLS	GP_Gen	-0.37	6 of 6
KVSISYLLESRNKNSVA	DASTRES	QQYHRLPLS	GP_HC	-0.34	6 of 6
KSSQSVGGEQRNKNSVA	DISTRES	QQYHRLPLS	GP_HC	-0.22	6 of 6
KLSMITGHMSMSKNNVA	EMVTREK	QQYNRLPLS	En_Gen	-0.12	6 of 6
KVSQSELYESRNKNSVA	HASTRES	QQYHRLPLS	GP_Gen	-0.07	6 of 6
KLSMQEMMESRNKNSVA	SANTREE	QQYHRLPLS	GP_Gibbs	0.06	6 of 6

As a blank, each scFv also met three strains without target: over all light chain designs, 4% of these pairings were detected, typically at 2.64 and seldom below 1.59. The range of this assay differs from that of the first round, and the authors advise against merging the two.